Results reported in patent publication US8652473B2, “Antibodies to EGF receptor epitope peptides and uses thereof” (Ludwig Institute for Cancer Research Ltd., priority 2004, dated 2014).

System: internalization of the EGFR
Experiment: EGFR internalization during ligand binding assay
Conditions: 30 μM Phenylarsine oxide; data not shown

Structure (SMILES): O=[As]c1ccccc1 (stereo not shown)
- internalization of the EGFR: > 1%
